System: striatal monoamines and metabolites
Settings: 63.5 µmol/kg intraperitoneal; 60 min; vs saline

## N[C@@H](Cc1ccc(O)c(O)c1)C(=O)O [L-Dopa]
  striatal DOPAC levels: significantly enhanced
